Source: patent publication US6171786A, “Methods for preventing multidrug resistance in cancer cells” (priority 1996, dated 2001)

Test system: MDR1 expression (P-glycoprotein)
Assay: Induction of MDR1 expression by cytotoxic drugs (dye efflux, UIC2, cDNA-PCR)
Type: cell-based, human

Q: With `O=C(O)CCCc1ccc(N(CCCl)CCCl)cc1` [chlorambucil] as the compound, how does the “maintenance of MDR1 expression after removal of drug” value (K562 subpopulation, treated 3-5 days then drug-free) read?
A: maintained for a least several weeks

Q: What about the MDR1 induction (human leukemia and solid-tumor derived cell lines, short-term exposure) of the same compound?
A: MDR1 induction, both at the mRNA and at the protein levels, was observed
